The term pEC50 denotes −log10 of the EC50, conventionally taken in molar units. Lower therefore signals a large EC50.

Sequences of proteins named here, by UniProt entry; tags and fusion partners are left off.
UniProt A6YIH7, entry or part of it: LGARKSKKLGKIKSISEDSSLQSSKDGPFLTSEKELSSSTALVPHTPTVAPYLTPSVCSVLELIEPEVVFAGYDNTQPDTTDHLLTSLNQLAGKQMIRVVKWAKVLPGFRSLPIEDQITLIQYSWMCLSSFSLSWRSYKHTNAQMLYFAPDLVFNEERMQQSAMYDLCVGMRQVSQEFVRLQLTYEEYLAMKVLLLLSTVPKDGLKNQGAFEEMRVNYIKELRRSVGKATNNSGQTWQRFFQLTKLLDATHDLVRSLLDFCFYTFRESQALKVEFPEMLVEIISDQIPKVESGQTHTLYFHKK

SMILES strings stand for the structures. pEC50: −log10 of the molar value.

One compound from publication PMC12636382, “Human and zebrafish mineralocorticoid receptors reporter cell assays to assess the activity of chemicals” (iScience, 2025) can be followed below.

This assay concerns the target zebrafish MR (zfMR) (Danio rerio, UniProt A6YIH7). The assay is described as follows: UG5LN-GAL4-zfMR luciferase reporter cell assay (agonism and antagonism tests). Format: cell-based. The protocol: The U2OS cells used to establish the MR reporter cell lines were obtained from and verified by ECACC (UK Health Security Agency, Porton Down, Salisbury, UK). The strategy used has been described previously to establish other NR-based cell lines.[42] First, the different pSG5-GAL4(DBD)-MRs (LBD) and (GAL4RE)5βGlob-Luc-SVNeo plasmids were tested by transient transfections in U2OS. Then, the UG5LN-GAL4-hMR and UG5LN-GAL4-zfMR clonal cells were generated in two steps. The first step was to establish clonal UG5LN cells by a stable transfection of U2OS cells, considered as steroid receptor negative, with the plasmid (GAL4RE)5βGlob-Luc-SVNeo. […]
To perform the reporter gene assay, cells were seeded in 96-wells white transparent culture plates (Greiner bio-one 655098CellStar; Dutscher, Brumath, France) at a density of 60,000 cells per well in 150 μL of culture medium and incubated at 37°C and 5% CO2 for 24 h. […] The luminescence signal was monitored in intact live cells for 2 s per well using a MicroBeta Wallac luminometer (PerkinElmer, Courtaboeuf, France). […]
The quantification and statistical analysis are integral parts of the software used (GraphPad Prism 10, GraphPad Software Inc). […]
(A reporter such as luciferase makes a cellular process visible.)

As to `C[C@@H]1C[C@H]2[C@@H]3CCC4=CC(=O)C=C[C@]4(C)[C@@]3(F)[C@@H](O)C[C@]2(C)[C@@]1(O)C(=O)CO` [dexamethasone], the pEC50 was 8.57.
